{"source": "patent US20230172189A1", "about": "“Methods for Extending the Shelf-life of Stored Donor Blood and/or Red Blood Cells and Treated Red Blood Cell Compositions Produced Thereby” (Ohio University, priority 2020, published 2023)", "system": "RBCs", "procedure": "The release of hemoglobin from the RBCs is considered as a sign of disrupting the cell membrane and consequently extracting the inner leaflet.\nThe hemolysis of RBCs during lipid exchange was measured using UV-Vis spectroscopy.\nPresence of hemoglobin in the exchange solution is believed to be a disruption of the RBCs, lead to extracting the inner leaflet of the membrane. To monitor the amount of hemolysis after the exchange, the cells were centrifuged at 750×g for 5 minutes, 200 μL of the supernatant was collected, and its absorbance at 541 nm was measured using a plate reader. RBCs suspended in DPBS and water for 1 hour, at the same hematocrit concentrations as the ones used for exchange experiments, were used as negative and positive controls for the hemolysis. Both controls were also centrifuged at 750×g for 5 minutes.", "data": [{"substance": "brain SM [bSM]", "values": [{"measurement": "hemolysis of RBCs during lipid exchange", "value": "lowest hemolysis"}]}]}
